Patent publication US20040266791A1 (priority 2003, published 2004)
Counter-ions that a name gives are not always drawn. Like-named read-outs stand apart in the source and are kept apart here.

What was measured:
[1] = in water at 20° C., calculated on free base
[2] = reported in U.S. Pat. No. 5,616,587; cited from earlier work
physchem = conditions: water, 20 °C, thermodynamic from solid, water at about 20° C.

## Cc1nc2n(c(=O)c1CCN1CCC(c3noc4cc(F)ccc34)CC1)CCCC2.Cc1nc2n(c(=O)c1CCN1CCC(c3noc4cc(F)ccc34)CC1)CCCC2.O=S(=O)(O)CCS(=O)(=O)O [Risperidone hemiedisylate]
[1]
  solubility (calc. on free base): 63 mg/mL

## Cc1nc2n(c(=O)c1CCN1CCC(c3noc4cc(F)ccc34)CC1)CCCC2 [Risperidone monohydrochloride]
[1]; monohydrochloride
  solubility (calc. on free base): 7.3 mg/mL

## Cc1nc2n(c(=O)c1CCN1CCC(c3noc4cc(F)ccc34)CC1)CCCC2 [risperidone hydrochloride]
[2]
  room temperature solubility: about 19.6 mg/ml

## CC(O)C(=O)O.Cc1nc2n(c(=O)c1CCN1CCC(c3noc4cc(F)ccc34)CC1)CCCC2 [Risperidone (L)lactate]
[1]
  solubility (calc. on free base): 12 mg/mL

## Cc1nc2n(c(=O)c1CCN1CCC(c3noc4cc(F)ccc34)CC1)CCCC2.O=C(O)C=CC(=O)O [Risperidone hydrogenmaleate]
[1]
  solubility (calc. on free base): 39 mg/mL

## Cc1nc2n(c(=O)c1CCN1CCC(c3noc4cc(F)ccc34)CC1)CCCC2 [Risperidone dihydrochloride]
[1]; dihydrochloride
  solubility (calc. on free base): 84 mg/mL
physchem
  solubility: > 80 mg/mL

## Cc1nc2n(c(=O)c1CCN1CCC(c3noc4cc(F)ccc34)CC1)CCCC2.O=C(O)C(O)c1ccccc1 [Risperidone (R)-mandelate]
[1]
  solubility (calc. on free base): 9.3 mg/mL
